Patent publication US20040214798A1 (priority 2003, published 2004)

Columns and labels:
[1] = tested on: SKOV3 human ovarian carcinoma cells infected with adenovirus expressing E. coli nitroreductase (NR+); assay: Cytotoxicity in SKOV3 cells infected with adenovirus expressing E. coli nitroreductase (NR+), MTT; assay type: cell-based
T116 cells = assay type: cell-based, Chinese hamster; settings: 1 hour drug exposure

## NC(=O)c1cc(N2CC2)c([N+](=O)[O-])cc1[N+](=O)[O-] [CB1954, 5-(aziridin-1-yl)-2,4-dinitrobenzamide, reference compound]
[1]; SKOV3, 18 hour drug exposure
  Ratio of IC50 values (NR−/NR+): 150
[1]; adenovirus NR 100 pfu/cell
  Selective toxicity in infected versus uninfected SKOV3 cells: 150 fold
T116 cells
  Ratio of IC50 values (F179/T116): >327
